Earlier results on one substance are cited in patent US20150374767A1, “Treatment of Cancer” (priority 2013, published 2015).

Sequences of proteins named here, by UniProt entry; tags and fusion partners are left off. Residues count along the entry.
UniProt P09619, 33-1106: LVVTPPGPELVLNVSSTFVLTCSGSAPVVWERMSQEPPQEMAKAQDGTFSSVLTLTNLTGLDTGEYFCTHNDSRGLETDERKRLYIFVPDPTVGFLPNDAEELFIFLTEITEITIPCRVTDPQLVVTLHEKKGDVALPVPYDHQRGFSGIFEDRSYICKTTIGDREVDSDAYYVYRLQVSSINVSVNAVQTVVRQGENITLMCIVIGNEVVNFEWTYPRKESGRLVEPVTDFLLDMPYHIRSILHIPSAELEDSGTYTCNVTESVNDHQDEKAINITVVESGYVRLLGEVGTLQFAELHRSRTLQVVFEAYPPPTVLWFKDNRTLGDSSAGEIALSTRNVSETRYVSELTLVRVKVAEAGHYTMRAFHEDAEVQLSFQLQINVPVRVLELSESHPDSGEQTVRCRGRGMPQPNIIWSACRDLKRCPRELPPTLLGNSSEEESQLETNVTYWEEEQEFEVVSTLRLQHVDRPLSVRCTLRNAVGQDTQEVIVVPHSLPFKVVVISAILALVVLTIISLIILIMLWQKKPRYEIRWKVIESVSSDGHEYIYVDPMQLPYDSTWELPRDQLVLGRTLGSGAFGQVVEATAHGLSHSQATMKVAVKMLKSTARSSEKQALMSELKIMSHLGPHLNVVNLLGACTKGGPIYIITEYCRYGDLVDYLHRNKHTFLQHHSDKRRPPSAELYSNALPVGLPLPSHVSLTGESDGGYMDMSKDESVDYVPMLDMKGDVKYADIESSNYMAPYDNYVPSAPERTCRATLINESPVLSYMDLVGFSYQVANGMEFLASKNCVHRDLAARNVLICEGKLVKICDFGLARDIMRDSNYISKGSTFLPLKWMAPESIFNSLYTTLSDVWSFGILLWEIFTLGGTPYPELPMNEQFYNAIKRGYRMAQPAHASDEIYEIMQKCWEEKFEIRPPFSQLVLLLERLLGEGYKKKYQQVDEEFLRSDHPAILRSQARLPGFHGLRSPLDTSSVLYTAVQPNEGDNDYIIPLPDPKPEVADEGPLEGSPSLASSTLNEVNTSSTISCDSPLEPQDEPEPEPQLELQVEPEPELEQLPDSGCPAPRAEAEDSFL

The data set deals with PDGFRβ (Homo sapiens, UniProt P09619). The settings on record: cited from earlier work.

Turning to “1-amino-5-fluoro-3-(6-(4-methylpiperazin-1-yl)-1H-benzo[d]imidazol-2-yl)quinolin-2(1H)-one [Dovitinib]”, the IC50 is 27 nM.
